From patent US8940491B2, “Genotoxicity as a biomarker for inflammation” (The Regents of the University of California, priority 2009, dated 2015)
Where two headings read alike, the source gives them in different places.

Columns and labels:
peripheral leukocytes [1] = tested on: peripheral leukocytes
Excerpt: Determination of oxidative DNA damage. The enzyme hOgg1-modified comet assay was used and carried out identically as previously described (1).

[2] = tested on: peripheral normochromatic erythrocytes; conditions: p<0.01
[3] = tested on: TNF-α, MCP-1, IFN-γ, TGF-β transcripts; test: Quantitative real-time PCR of cytokines in peripheral blood, DSS colitis; format: in vivo, mouse; conditions: DSS treated mice, particularly after the first cycle
Experimental: RNA Isolation and Quantitative Real-Time PCR. Total RNA was isolated using QiaAmp RNA Blood Mini Kit (Qiagen) according to manufacturer's instructions. 25 ng/μl of total RNA was used for reverse transcription using OligodT (Invitrogen) and Superscript III Reverse Transcriptase (Invitrogen). 10 ng/μl of cDNA was used for quantitative real time PCR using Taqman Gene Expression Assays (Applied Biosystems, Foster City, Calif. p/n 4331182) for Tbp (TATA binding protein), TNF-α (tumor necrosis factor α), MCP-1 (monocyte chemoattractant protein 1, also known as CC chemokine ligand 2, CCL2), IFN-γ (interferon γ), TGF-β (tumor growth factor β) and Taqman Gene Expression Master Mix according to manufacturer's instructions on the ABI Prism 7500 sequence detection system (Applied Biosystems). Tbp was chosen as the endogenous control due to its low variability and low to medium relative abundance in terms of expression in blood (30). Each measurement was performed in triplicate and results were analyzed using SDS 2.2.1 software (Applied Biosystems). Gene expression was determined using the relative standard curve method normalized to Tbp expression.

peripheral leukocytes [4] = tested on: peripheral leukocytes; remark: listed apart in the source
mice = test: Disease activity index in DSS-induced experimental colitis; format: in vivo; conditions: 3% (w/v) DSS in drinking water, 3 cycles (7 days DSS, 14 days water); after Day 4 of Cycle 1, Day 3 of Cycle 2, Day 2 of Cycle 3; p<0.001
Experimental: Induction of chemical colitis. […] Acute colitis was defined as a 7 day treatment, and chronic colitis as any further treatment including remission periods. Control animals received sterile acidified water only. Symptoms (weight loss, stool consistency, gross bleeding) were recorded daily for calculation of disease activity index (23).
Evaluation of Experimental Colitis. The disease activity index (DAI) is the average combined score of weight loss (0-4), stool consistency (0-4), and bleeding (0-4), used to score clinical symptoms (23).

Substance: dextran sulfate sodium [DSS]
- Mortality of Atm−/− mice under DSS treatment (Atm^−/− mice; 3% DSS, 3 cycles, one death at end of cycle 2, one at end of cycle 3): Two out of ten
- Disease activity index, Atm−/− vs wildtype and heterozygous mice (Atm^−/− mice; after acute 7 day exposure to DSS): mildly higher disease activity index
- Olive tail moment (DNA strand breaks, alkali-labile sites), wildtype mice (peripheral leukocytes [1]; after the first DSS cycle, p<0.001): increased in wildtype mice after the first cycle
- DNA strand breaks (olive tail moment), Atm−/− mice (peripheral leukocytes [1]; over DSS treatment, regardless of remission periods): successively increased
- Micronucleus formation (MN-NCE per 1000 NCEs) ([2]; after first cycle of DSS vs non-treated): significantly induced after the first cycle of treatment
- Micronucleus formation (MN-NCE per 1000 NCEs) ([2]; after second and third cycles vs non-treated and vs before cycle 1): further induced after the second and third cycles
- Cytokine mRNA expression in peripheral blood (relative to Tbp) [3]: up-regulation of TNF-α, MCP-1 (CCL2), and IFN-γ
- 8-oxoguanine and nitrotyrosine formation in peripheral leukocytes, Atm−/− mice (peripheral leukocytes [4]; 7 days of DSS treatment, p<0.05): significant increases in 8-oxoguanine
- 8-oxoguanine and nitrotyrosine formation in peripheral leukocytes, wildtype mice (peripheral leukocytes [4]; acute 7 day exposure to DSS, p<0.01): significant increases
- Disease Activity Index (DAI) of DSS treated vs. non-treated mice (mice): significantly higher disease activity indices
